## Ab-95 light chain CDR variants: yeast mating affinities

The measurements come from Engelhart et al. 2022 (doi:10.1038/s41597-022-01779-4) through the FLAb antibody collection.

The target is the same throughout: PDVDLGDISGINAS, from the HR2 region of SARS-CoV-2 spike.

Each scFv is VH, a (GGGGS)3 linker, VL, as in the parent Ab-95, and differs from it in the CDRs of the light chain only.
VH: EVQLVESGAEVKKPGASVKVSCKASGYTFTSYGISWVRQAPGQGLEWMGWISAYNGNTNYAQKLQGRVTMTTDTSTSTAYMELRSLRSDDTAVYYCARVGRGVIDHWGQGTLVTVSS
VL: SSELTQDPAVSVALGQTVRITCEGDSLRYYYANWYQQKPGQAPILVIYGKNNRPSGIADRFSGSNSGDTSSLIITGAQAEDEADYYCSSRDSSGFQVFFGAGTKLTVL

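The library (AAYL52) carries one to three amino acid substitutions per variant, with no insertions or deletions. The scFvs were displayed on barcoded MATa yeast, the peptide on MATalpha yeast. After mating in shaken culture at 30 °C for 16 h, diploids were selected and their barcode pairs sequenced. Scores were corrected for input abundance and mapped to Kd with protein pairs of known affinity run in the same pool. There are three technical replicates.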

Each variant is given by its three light chain CDRs, as the data file delimits them; those of the parent are EGDSLRYYYAN, GKNNRPS, SSRDSSGFQVF. The read-out is the apparent dissociation constant on a log10 scale (nM): the lower, the stronger. The mean shown is taken over the replicates in which the pair was detected. "n.d." means that the variant was in the library but no mating with the target was seen in that replicate; the authors take this as a sign of poor binding, and no number exists. Background: pairings of library AAYL52 with three empty control strains gave a value in 28% of cases (median 3.91, 5th percentile 2.90). Values in that range, when seen in few replicates, are hard to tell from nonspecific mating. For each scFv, signals with the empty controls are counted beside the result, with their mean in brackets. In this assay the parent's reference entry averaged 2.31; its copy inside this library read 2.25.

CDR-L1 | CDR-L2 | CDR-L3 | log10 Kd (nM) by replicate | mean log10 Kd (nM) | signal with controls
AQDSLRYYYAN | GKNNRPS | SERDSSGFQVF | 5.09 / 3.09 / n.d. | 4.09 | 2 of 9 (3.64)
EGDSLRYMYAN | GKNNRPS | SSRDSSGFKFF | n.d. / n.d. / 2.37 | 2.37 | 0 of 9
EGDSLRYYYCN | GKNHRPS | SSRDSSGFQVF | 3.48 / 3.48 / 2.81 | 3.26 | 2 of 9 (4.65)
EGDSERYEYAN | GKNNRPS | SSRDSKGFQVF | 2.79 / 2.65 / 2.62 | 2.69 | 0 of 9
EGDSKGYYYAN | GKNNRPS | SSRDSSGFQDF | n.d. / 4.44 / n.d. | 4.44 | 2 of 9 (3.34)
EGDVLRYYYAN | GKNNRPS | SSRKSSSFQVF | 4.31 / 5.47 / 3.10 | 4.29 | 3 of 9 (3.75)
EFDSLRYYYAN | GKYNRPS | SSRDSIGFQVF | 3.89 / 4.58 / n.d. | 4.23 | 5 of 9 (4.13)
EGRSLRYYPAN | GKNNRPT | SSRDSSGFQVF | 1.30 / 1.26 / 0.82 | 1.13 | 4 of 9 (3.69)
EGDSSRYYMAN | GKNNRPS | ESRDSSGFQVF | n.d. / 5.38 / n.d. | 5.38 | 3 of 9 (3.81)
EGDSLRTYYAN | GKNNRPS | SSRDFSGMQVF | 1.88 / 2.04 / 1.53 | 1.82 | 4 of 9 (4.13)
EGDSLRYYYAL | GKNNRPS | SSRDSSHFDVF | 4.23 / 5.89 / n.d. | 5.06 | 4 of 9 (4.37)
EGDSLRYYYAN | GKNLRSS | SSRSSSGFQVF | 2.56 / 2.59 / 2.40 | 2.51 | 6 of 9 (4.16)
EGDSLRYYYAN | GKNNRPK | SSRDSSGFQSF | 3.29 / 2.58 / 3.03 | 2.97 | 0 of 9
DGDQLAYYYAN | GKNNRPS | SSRDSSGFQVF | n.d. / 5.63 / 4.33 | 4.98 | 2 of 9 (4.63)
EGDSLRYYYAN | GKNNRPS | SSRDSAGFQVF | 2.50 / 2.42 / 2.13 | 2.35 | 4 of 9 (4.19)
EMDSLRYYYAN | GKQNRPS | SSRDSSGFNVF | 3.26 / n.d. / n.d. | 3.26 | 0 of 9
EGDSLRYYYAK | GKPNRPS | RSRDSSGFQVF | n.d. / n.d. / n.d. | n.d. | 3 of 9 (4.00)
EGDSLTYYYCN | GKNNRPS | LSRDSSGFQVF | 3.16 / 3.92 / n.d. | 3.54 | 1 of 9 (3.94)
EGDMLRYYYAN | GKFVRPS | SSRDSSGFQVF | n.d. / n.d. / 3.17 | 3.17 | 2 of 9 (4.32)
EGDSLRYYYAN | GKNNRPR | SSRDSSGCCVF | 2.76 / 2.84 / 2.36 | 2.65 | 5 of 9 (4.20)
EGDNLRYYYAN | GFNNRPS | SSPDSSGFQVF | 5.23 / 3.87 / n.d. | 4.55 | 4 of 9 (4.16)
EVDSLDYYYAN | NKNNRPS | SSRDSSGFQVF | 3.75 / 2.19 / n.d. | 2.97 | 1 of 9 (3.46)
EGDSLRNYYAC | GKNNTPS | SSRDSSGFQVF | 3.26 / 3.13 / 3.95 | 3.45 | 3 of 9 (3.75)
EGDSYRYYYAN | GKNNRPT | SSRDSSGFNVF | 2.65 / 2.64 / 2.41 | 2.57 | 2 of 9 (4.63)
EGGSLRYYYAN | GKNNRPS | SSRDSRGFQSF | n.d. / n.d. / n.d. | n.d. | 1 of 9 (3.51)
EGDSLRNYYAN | GKYNRPS | SSRDSSGVQVF | 2.44 / 2.53 / 2.69 | 2.55 | 5 of 9 (4.45)
EGDSLRYYYFN | GKNNQPS | SERDSSGFQVF | n.d. / 4.58 / n.d. | 4.58 | 4 of 9 (4.61)
EGDSLRYYPAN | GKNNRWS | YSRDSSGFQVF | 2.14 / 1.88 / 1.63 | 1.88 | 4 of 9 (4.28)
EWDSLRYYYAR | GKCNRPS | SSRDSSGFQVF | n.d. / 4.79 / n.d. | 4.79 | 0 of 9
EGDSLRRYYAN | GKNNRPS | SSRESSVFQVF | 2.59 / 3.07 / 1.61 | 2.42 | 6 of 9 (3.91)
EGDSLKYYYPN | GKNNRPS | SSRDSSGFQVF | 1.46 / 1.50 / 1.16 | 1.37 | 4 of 9 (3.93)
EGDSLDYYYAN | GKNNRPS | SIRDQSGFQVF | 2.53 / 2.62 / 2.89 | 2.68 | 4 of 9 (3.96)
EGDSLRYYYAN | GYNNRPS | SSTDSSGRQVF | 4.28 / n.d. / n.d. | 4.28 | 0 of 9
EGDSTRFYYAN | GKNNRPS | SSDDSSGFQVF | n.d. / n.d. / n.d. | n.d. | 2 of 9 (3.74)
GGDSLGYYYAN | GKNNRPS | SSGDSSGFQVF | 3.05 / n.d. / n.d. | 3.05 | 2 of 9 (3.62)
EGDSPRYYYAN | GKNNNPS | SSRDSSGFYVF | 4.18 / 3.82 / n.d. | 4.00 | 3 of 9 (4.46)
EGDSLRAYYAG | GNNNRPS | SSRDSSGFQVF | 5.34 / 5.68 / 2.69 | 4.57 | 4 of 9 (3.90)
EGDSLRYYYNN | GLNNRPS | SSRDSSGFQVS | 3.01 / 4.86 / 2.80 | 3.55 | 2 of 9 (3.64)
EEDSLRYYYAN | GKNNRPS | CSRDSSGFHVF | 3.51 / 3.50 / n.d. | 3.50 | 3 of 9 (4.16)
EGDSKRYYYAN | RKNNRPS | SSRDSCGFQVF | n.d. / 5.58 / n.d. | 5.58 | 0 of 9
IGDSLRSYYAN | GKNNRPS | SSRDSSGFEVF | 2.24 / 2.11 / 1.84 | 2.06 | 1 of 9 (4.46)
EGDSLRYYYAN | GENLRPS | SSPDSSGFQVF | 1.65 / 1.61 / 0.88 | 1.38 | 3 of 9 (4.50)
EGDSLRYYYAN | GKNNMPS | SSTDSSGFEVF | n.d. / 2.98 / n.d. | 2.98 | 2 of 9 (3.32)
TGDSLRYYYAN | GKQNRPS | SSRDCSGFQVF | 4.01 / n.d. / n.d. | 4.01 | 1 of 9 (3.88)
EGDSLTYYYAN | GKNNRDS | SSRDSSGFTVF | n.d. / n.d. / n.d. | n.d. | 1 of 9 (3.39)
EGDSLRYYYWN | GKNNRPW | SPRDSSGFQVF | n.d. / 4.26 / n.d. | 4.26 | 1 of 9 (3.39)
EGRSLRYYYAN | GRNNRPS | SSRESSGFQVF | n.d. / n.d. / 3.51 | 3.51 | 0 of 9
EGDSLRYYYRN | SKNNRPS | SSRDSPGFQVF | 4.00 / 3.32 / 3.48 | 3.60 | 8 of 9 (4.47)
EGDSLRVTYAN | GKNNRPM | SSRDSSGFQVF | 2.11 / 1.94 / 1.62 | 1.89 | 1 of 9 (4.47)
EGDSCRYYYAP | GKNNQPS | SSRDSSGFQVF | 4.64 / n.d. / n.d. | 4.64 | 3 of 9 (3.08)